Measured values from PMC4145329, “Paper Synthesis, Cytotoxicity and Apoptosis Induction in Human Tumor Cells by Galaxamide and Its Analogues” (Marine Drugs, 2014).

Assays:
Assay type in all cases: cell-based, human
Conditions in all cases: 72 h, mean ± standard error, three independent experiments
HepG2 cells = test: MTT anti-proliferative assay, HepG2
Method: (§1) All of the cells were incubated at 37 °C in a humidified atmosphere composed of 95% air and 5% CO2. The cell viability was determined by measuring the ability of cells to transform MTT (Genview, Houston, TX, USA) to a purple formazan dye. The cells were seeded in 96-well tissue culture plates at 2.5 × 10^3 cells/well for 24 h. The cells were then incubated with galaxamide and its analogues at different concentrations for 72 h. After incubation, 20 μL/well of MTT solution (5 mg/mL phosphate buffered saline) were added and incubated for 5 h. The medium was aspirated and replaced with 100 μL/well of DMSO to dissolve the formazan salt. The color intensity of the formazan solution, which reflects the cell growth condition, was measured at 570 nm using a microplate spectrophotometer (SpectroAma™ 250, Winooski, VT, USA).

SW480 cells = test: MTT anti-proliferative assay, SW480
Method: as §1

MCF-7 cells = test: MTT anti-proliferative assay, MCF-7
Method: as §1

U87 cells = test: MTT anti-proliferative assay, U87
Method: as §1

Galaxamide
Cytotoxicity IC50, HepG2 (HepG2 cells): 4.63 ± 0.14 µg/mL
Cytotoxicity IC50, SW480 (SW480 cells): 43.82 µg/mL
Cytotoxicity IC50, MCF-7 (MCF-7 cells): 14.09 ± 1.35 µg/mL
Cytotoxicity IC50, U87 (U87 cells): 10.61 ± 0.24 µg/mL
